{
  "sequences": {"note": "Sequences of proteins named here, by UniProt entry; tags and fusion partners are left off.", "UniProt P35372, whole entry, species assumed": "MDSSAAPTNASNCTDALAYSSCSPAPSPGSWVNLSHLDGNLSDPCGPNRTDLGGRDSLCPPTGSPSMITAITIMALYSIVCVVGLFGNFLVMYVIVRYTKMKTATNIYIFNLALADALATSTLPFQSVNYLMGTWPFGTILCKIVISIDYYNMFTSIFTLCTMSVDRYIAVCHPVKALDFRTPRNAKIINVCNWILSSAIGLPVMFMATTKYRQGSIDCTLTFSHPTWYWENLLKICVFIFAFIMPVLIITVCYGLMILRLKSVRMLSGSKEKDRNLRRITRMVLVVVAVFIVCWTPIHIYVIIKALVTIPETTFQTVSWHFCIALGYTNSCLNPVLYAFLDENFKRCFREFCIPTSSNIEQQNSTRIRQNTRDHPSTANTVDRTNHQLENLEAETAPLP"},
  "source": "patent US20060172006A1",
  "about": "“Sustained-release tramadol formulations with 24-hour clinical efficacy” (priority 2003, published 2006)",
  "origin": "cited, not measured here",
  "molecular_target": "μ-opioid receptor (Homo sapiens, UniProt P35372)",
  "conditions": "higher affinity than racemic tramadol",
  "data": [
    {"smiles": "CN(C)C[C@H]1CCCC[C@]1(O)c1cccc(O)c1", "note": "[mono-O-desmethyltramadol (M1), mono-O-desmethyltramadol]", "values": [
      {"measurement": "Affinity for the μ-opioid receptor relative to racemic tramadol", "result": "~200", "unit": "fold"}
    ]}
  ]
}
